Curated experimental data: fraction unbound values

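The OPERA project collected these measurements from public sources as training and test data for property models. A listed value is a point estimate from one report or more. Method, purity and exact conditions of the single measurements are not given. The measured form (salt, isomer or mixture) is not always the one drawn. Unmarked limits or estimates from the upstream databases cannot be ruled out.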

fu is the fraction unbound in human plasma, from 0 to 1.

| SMILES | fu |
|---|---|
| Cc1cccc(N2CC(CO)OC2=O)c1 (centres undefined) | 0.4925 |
| COc1nccnc1NS(=O)(=O)c1ccc(N)cc1 | 0.2548 |
| CCOC(=O)c1ccc(O)cc1 | 0.1057 |
| COc1ncnc(NS(=O)(=O)c2ccc(N)cc2)c1OC | 0.06 |
| CC(=O)C(C)=CC1C(C)=CCCC1(C)C (centres undefined) | 0.006334 |
| CCCCC[C@H](O)/C=C/[C@H]1[C@H](O)CC(=O)[C@@H]1CCCCCCC(=O)O | 0.08 |
| Cc1cccc(O)c1 | 0.363 |
| CCC(Cc1c(I)cc(I)c(N)c1I)C(=O)O (centres undefined) | 0.21 |
| O=P(O)(O)C(Cl)(Cl)P(=O)(O)O | 0.64 |
| Cc1cc(CC(=O)O)n(C)c1C(=O)c1ccc(Cl)cc1 | 0.0175 |
| CC1=C(C)S(=O)(=O)CCS1(=O)=O | 0.937 |
| CCc1ccc(CCOc2ccc(CC3SC(=O)NC3=O)cc2)nc1 (centres undefined) | 0.008916 |
| O=c1[nH]c(-c2ccc(C(F)(F)F)cc2)nc2c1CSCC2 | 0.024 |
| Cn1c(=O)c2c(ncn2CCCNCC(O)c2cc(O)cc(O)c2)n(C)c1=O (centres undefined) | 0.5 |
| CCCCCCC(C=O)=Cc1ccccc1 | 0.009805 |
| CC(C)C(=O)Nc1ccc([N+](=O)[O-])c(C(F)(F)F)c1 | 0.04694 |
| Oc1ccc(Nc2ccccc2)cc1 | 0.0582 |
| CN(C)c1ccc(/N=N/c2ccccc2C(=O)O)cc1 | 0.0304 |
| O=C1CCCCCN1 | 0.761 |
| N#Cc1cc(-c2n[nH]c(-c3ccncc3)n2)ccn1 | 0.151 |
| Cc1ccc(C)c(OCCCC(C)(C)C(=O)O)c1 | 0.008307 |
| Cc1c(C)c2c(c(C)c1O)CCC(C)(COc1ccc(CC3SC(=O)NC3=O)cc1)O2 (centres undefined) | 0.001678 |
| O=C1NC(c2ccccc2)(c2ccccc2)C(=O)N1COP(=O)(O)O | 0.05 |
| CC(Oc1ccccc1)C(=O)N[C@@H]1C(=O)N2[C@@H]1SC(C)(C)[C@@H]2C(=O)O (stereo partly drawn) | 0.25 |
| Cc1onc(-c2ccccc2Cl)c1C(=O)N[C@@H]1C(=O)N2[C@@H]1SC(C)(C)[C@@H]2C(=O)O | 0.05 |
| NC(=O)NN=Cc1ccc([N+](=O)[O-])o1 | 0.856 |
| O=C(O)c1ccccc1-c1c2ccc(=O)cc-2oc2cc(O)ccc12 | 0.1899 |
| Cc1cn([C@H]2C=C[C@@H](CO)O2)c(=O)[nH]c1=O | 0.9933 |
| CN1CC(=O)N2[C@H](c3ccc4c(c3)OCO4)c3[nH]c4ccccc4c3C[C@@H]2C1=O | 0.06 |
| CC[C@H]1OC(=O)[C@H](C)C(=O)[C@H](C)[C@@H](O[C@@H]2O[C@H](C)C[C@H](N(C)C)[C@H]2O)[C@](C)(OC)C[C@@H](C)C(=O)[C@H](C)[C@H]2N(CCCCn3cnc(-c4cccnc4)c3)C(=O)O[C@]12C | 0.4 |
| O=P(O)(O)C(Sc1ccc(Cl)cc1)P(=O)(O)O | 0.1 |
| CCC[C@@H](c1ccc(C(=O)O)c(Oc2cccc(Cl)c2)c1)N1CCC[C@H](n2cc(C)c(=O)[nH]c2=O)C1 | 0.009127 |
| CN(C)[C@@H]1C(O)=C(C(N)=O)C(=O)[C@@]2(O)C(O)=C3C(=O)c4c(O)ccc(Cl)c4[C@@H](O)[C@H]3C[C@@H]12 | 0.5575 |
| CCC(=O)OC(OP(=O)(CCCCc1ccccc1)CC(=O)N1C[C@H](C2CCCCC2)C[C@H]1C(=O)O)C(C)C (stereo partly specified) | 0.05 |
| COc1ccccc1N1CCN(CCCNc2cc(=O)n(C)c(=O)n2C)CC1 | 0.2 |
| COc1ccc(C(=O)c2ccccc2)c(O)c1 | 0.00952 |
| C[C@H](O)C(=O)Nc1c(I)c(C(=O)NC(CO)CO)c(I)c(C(=O)NC(CO)CO)c1I | 0.9988 |
| CCCN[C@H]1CCc2nc(N)sc2C1 | 0.85 |
| Cc1ccc(S(=O)(=O)Nc2c(C(=O)N[C@H](C)C(C)(C)C)c(C)nn2-c2ccccc2)cc1 | 0.0111 |
| CC(=O)OCC(=O)[C@@]12N=C(C)O[C@@H]1C[C@H]1[C@@H]3CCC4=CC(=O)C=C[C@]4(C)[C@H]3[C@@H](O)C[C@@]12C | 0.6 |
| CC(=O)S[C@@H]1CC2=CC(=O)CC[C@]2(C)[C@H]2CC[C@@]3(C)[C@@H](CC[C@@]34CCC(=O)O4)[C@H]12 | 0.1201 |
| Nc1cc(-c2ccncc2)c[nH]c1=O | 0.89 |
| CC(=O)NCCCS(=O)(=O)O | 0.97 |
| CC[C@H](c1ccc(O)cc1)[C@@H](CC)c1ccc(O)cc1 | 0.00772 |
| N=c1n[n+]([O-])c2ccccc2n1O | 0.81 |
| C#C[C@]1(O)CC[C@H]2[C@@H]3CCC4=CC(=O)CC[C@@H]4[C@H]3CC[C@@]21C | 0.1258 |

The last 4 entries again:

{"smiles": "CC(=O)NCCCS(=O)(=O)O", "fu": "0.97"}
{"smiles": "CC[C@H](c1ccc(O)cc1)[C@@H](CC)c1ccc(O)cc1", "fu": "0.00772"}
{"smiles": "N=c1n[n+]([O-])c2ccccc2n1O", "fu": "0.81"}
{"smiles": "C#C[C@]1(O)CC[C@H]2[C@@H]3CCC4=CC(=O)CC[C@@H]4[C@H]3CC[C@@]21C", "fu": "0.1258"}

Values as listed in the OPERA 2.9 repository of K. Mansouri.